Measured values: patent publication US20080125475A1 (priority 2006, published 2008)
Entries after “also recorded” stand apart in the source; their conditions may differ. Read-outs that look alike come from different tables or passages of the source.

Experiments:
Sprague-Dawley rats [1] = assay: animal or person; conditions: Rattus norvegicus, iv, read-out: ED50 chronic
Sprague-Dawley rats [2] = conditions: rat, in vivo, iv
Sprague-Dawley rats [3] = assay: animal or person; type: in vivo; conditions: Rattus norvegicus, iv, read-out: ED50 acute
spinalized rats = conditions: rat, in vivo

Structure (SMILES) | ED50 (Sprague-Dawley rats [1]) | Enhancement of action factor (Sprague-Dawley rats [2]) | ED50 (Sprague-Dawley rats [3]) | antinociceptive action after inflammation compared with before (spinalized rats)
CO[C@@]12CCC3(C[C@@H]1C(C)(O)C(C)(C)C)[C@H]1Cc4ccc(O)c5c4[C@@]3(CCN1CC1CC1)C2O5 (stereo partly shown) [Compound B5, buprenorphine] | 0.055 mg/kg | 0.3x | 0.017 mg/kg | 
CN1CC[C@]23c4c5ccc(O)c4O[C@H]2[C@@H](O)C=C[C@H]3[C@H]1C5 [Compound B3, morphine] |  |  |  | tends to be weaker after inflammation; also recorded: does not change after inflammation
